One assay deals with A-431. As to the kind of experiment: Concentration required to inhibit growth of human carcinoma epidermoid (A431) cell line. The assay is classed as functional, cell-based.
The target of assay [1] is Epidermal growth factor receptor (Homo sapiens, UniProt P00533).
Assay [2] deals with Receptor tyrosine-protein kinase erbB-2 (Homo sapiens, UniProt P04626). In words: Concentration required to inhibit autophosphorylation of cytoplasmic domain of human epidermal growth factor receptor-2.
The test system of another assay is SW-620. In words: Concentration required to inhibit growth of human carcinoma colon (SW620) cell line. The assay is classed as functional, cell-based.

Sequences of proteins named here, by UniProt entry; tags and fusion partners are left off.
UniProt P00533, whole entry: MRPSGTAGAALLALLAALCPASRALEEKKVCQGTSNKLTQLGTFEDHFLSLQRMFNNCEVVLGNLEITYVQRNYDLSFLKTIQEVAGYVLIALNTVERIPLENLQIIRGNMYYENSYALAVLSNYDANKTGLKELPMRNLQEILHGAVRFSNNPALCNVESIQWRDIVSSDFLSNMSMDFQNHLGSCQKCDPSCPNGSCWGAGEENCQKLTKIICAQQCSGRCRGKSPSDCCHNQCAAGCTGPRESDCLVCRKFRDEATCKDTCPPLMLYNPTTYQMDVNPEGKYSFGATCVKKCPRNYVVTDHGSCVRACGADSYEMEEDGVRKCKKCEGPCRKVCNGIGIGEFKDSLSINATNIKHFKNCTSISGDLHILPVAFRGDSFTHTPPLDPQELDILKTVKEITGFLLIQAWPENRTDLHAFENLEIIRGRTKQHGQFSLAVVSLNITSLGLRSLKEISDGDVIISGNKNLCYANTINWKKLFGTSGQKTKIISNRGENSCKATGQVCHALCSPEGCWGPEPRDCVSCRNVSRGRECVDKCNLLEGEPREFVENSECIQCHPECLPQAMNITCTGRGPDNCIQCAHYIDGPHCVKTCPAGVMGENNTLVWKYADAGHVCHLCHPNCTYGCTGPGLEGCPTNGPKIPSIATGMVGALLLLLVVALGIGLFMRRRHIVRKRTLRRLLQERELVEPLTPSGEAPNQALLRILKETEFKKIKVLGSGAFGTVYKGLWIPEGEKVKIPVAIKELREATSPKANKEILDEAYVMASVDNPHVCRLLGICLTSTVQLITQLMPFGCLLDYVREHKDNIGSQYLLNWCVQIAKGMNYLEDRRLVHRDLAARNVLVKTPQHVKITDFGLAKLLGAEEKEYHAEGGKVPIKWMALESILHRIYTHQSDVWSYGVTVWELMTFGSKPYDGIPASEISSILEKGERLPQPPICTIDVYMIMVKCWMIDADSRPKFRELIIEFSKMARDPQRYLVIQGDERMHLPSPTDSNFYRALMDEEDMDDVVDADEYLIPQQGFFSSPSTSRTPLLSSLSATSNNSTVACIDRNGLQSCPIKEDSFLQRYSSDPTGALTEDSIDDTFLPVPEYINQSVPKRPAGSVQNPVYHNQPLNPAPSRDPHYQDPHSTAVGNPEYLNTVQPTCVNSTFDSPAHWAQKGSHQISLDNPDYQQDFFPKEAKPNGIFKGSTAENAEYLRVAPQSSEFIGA
UniProt P04626, whole entry: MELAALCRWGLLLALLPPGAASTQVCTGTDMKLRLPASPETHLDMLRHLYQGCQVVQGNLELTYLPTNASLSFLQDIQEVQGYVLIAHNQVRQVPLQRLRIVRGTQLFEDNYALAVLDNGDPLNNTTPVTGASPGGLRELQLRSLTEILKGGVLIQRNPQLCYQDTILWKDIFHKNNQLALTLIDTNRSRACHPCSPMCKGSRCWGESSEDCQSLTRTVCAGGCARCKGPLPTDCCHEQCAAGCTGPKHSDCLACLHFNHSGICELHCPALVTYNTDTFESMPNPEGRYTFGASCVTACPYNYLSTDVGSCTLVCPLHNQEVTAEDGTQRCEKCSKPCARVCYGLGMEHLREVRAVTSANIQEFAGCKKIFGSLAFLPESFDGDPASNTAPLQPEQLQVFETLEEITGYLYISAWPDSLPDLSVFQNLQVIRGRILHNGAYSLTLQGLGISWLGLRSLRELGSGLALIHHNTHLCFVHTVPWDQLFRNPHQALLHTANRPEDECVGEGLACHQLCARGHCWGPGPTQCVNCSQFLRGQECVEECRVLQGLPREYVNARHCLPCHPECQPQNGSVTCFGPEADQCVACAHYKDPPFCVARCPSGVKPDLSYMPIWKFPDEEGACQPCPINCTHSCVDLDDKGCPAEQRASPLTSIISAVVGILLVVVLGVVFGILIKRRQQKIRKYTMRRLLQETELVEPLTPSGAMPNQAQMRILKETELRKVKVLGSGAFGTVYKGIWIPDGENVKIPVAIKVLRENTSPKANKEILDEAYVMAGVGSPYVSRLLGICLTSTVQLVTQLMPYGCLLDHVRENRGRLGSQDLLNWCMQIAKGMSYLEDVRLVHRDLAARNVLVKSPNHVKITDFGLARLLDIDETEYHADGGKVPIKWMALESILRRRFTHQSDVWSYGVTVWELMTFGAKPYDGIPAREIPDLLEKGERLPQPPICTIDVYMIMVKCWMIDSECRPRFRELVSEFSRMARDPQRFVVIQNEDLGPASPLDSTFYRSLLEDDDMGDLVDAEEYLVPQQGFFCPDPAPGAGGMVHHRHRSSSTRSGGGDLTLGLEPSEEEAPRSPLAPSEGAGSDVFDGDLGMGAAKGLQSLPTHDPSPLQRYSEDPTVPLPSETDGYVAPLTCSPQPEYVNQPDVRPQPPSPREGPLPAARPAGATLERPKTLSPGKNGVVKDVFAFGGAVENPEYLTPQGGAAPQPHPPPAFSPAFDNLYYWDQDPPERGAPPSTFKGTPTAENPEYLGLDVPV

Broadly, the IC50 is the concentration that gives 50% inhibition. Read a low IC50 as greater potency in that assay. With `COc1cc2ncc(C#N)c(Nc3ccc(F)c(Cl)c3)c2cc1NC(=O)/C=C/C(C)N1CCOCC1` (stereo not given), the 50% inhibitory concentration (IC50) was 0.59 µM with A-431 and 10.6 µM in assay [1]. The corresponding values for `CN(C)C/C=C/C(=O)Nc1cc2c(Nc3ccc(F)c(Cl)c3)c(C#N)cnc2cc1OC(F)(F)F` are 0.47 µM and 2.64 µM.

In the assay with A-431, `COc1cc2ncc(C#N)c(Nc3ccc(F)c(Cl)c3)c2cc1NC(=O)/C=C/C(C)N(C)C` (stereo not given) registered an IC50 of 0.43 µM.

`CCN(CC)C(C)/C=C/C(=O)Nc1cc2c(Nc3ccc(F)c(Cl)c3)c(C#N)cnc2cc1OC` (stereo not given) gave an IC50 with A-431 of 0.38 µM.

Regarding `C/C=C/C(=O)Nc1ccc2ncc(C#N)c(Nc3cccc(Br)c3)c2c1`, in assay [2], the IC50 was 4.5 µM.

The compound `COc1cc(NC(=O)/C=C/CN2CCOCC2)cc2c(Nc3cccc(Br)c3)c(C#N)cnc12` gave an IC50 in the assay on A-431 of 2.22 µM. `C/C=C/C(=O)Nc1cc2c(Nc3ccc(F)c(Cl)c3)c(C#N)cnc2cc1OCC`: the results for the half-maximal inhibitory concentration (IC50) in the assay on A-431 and in the assay on SW-620 were 1.25 µM and 7.46 µM, respectively.
